Antibody variant affinities, Ab-14 heavy chain, assay B

Target: peptide PDVDLGDISGINAS, taken from heptad repeat 2 (HR2) of SARS-CoV-2 spike.

Parent: Ab-14, a human scFv built as VH, three GGGGS repeats, VL. Only the CDRs of the heavy chain vary.
VH: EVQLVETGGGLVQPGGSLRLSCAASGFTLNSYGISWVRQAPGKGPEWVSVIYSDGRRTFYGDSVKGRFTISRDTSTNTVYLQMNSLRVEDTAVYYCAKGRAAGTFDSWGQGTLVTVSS
VL: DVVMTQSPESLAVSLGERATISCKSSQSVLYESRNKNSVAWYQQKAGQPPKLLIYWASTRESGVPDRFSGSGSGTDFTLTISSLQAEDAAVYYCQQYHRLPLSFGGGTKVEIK

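Designed CDR sequences, proposed from the first random library and measured here. Group labels follow the data file (En: ensemble of fine-tuned language models; HC: hill climbing; Gen: genetic algorithm; Gibbs: Gibbs sampling; a sequence that several methods proposed may carry one label only). AlphaSeq pools MATa yeast showing the antibodies with MATalpha yeast showing the peptide. The frequency of each diploid, read from paired DNA barcodes, reflects how well the two displayed proteins bind. The ratio of observed to expected reads was calibrated, replicate by replicate, on BCL2-family standards whose Kd was known from biolayer interferometry. Each pool was mated in six replicate cultures.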

The parent's heavy chain CDRs are GFTLNSYGIS, VIYSDGRRTFYGDSVK, GRAAGTFDS; each variant's own CDRs replace them letter for letter. Variants here have more than six changes. Affinities are written as log10 Kd with Kd in nM; a lower number is a better binder. "nd" marks a missing value. The strain was present, yet no cells mated with the target were sequenced in that replicate, which points to weak or no binding. Values of this round are not directly comparable with the first-round values of the same sequences. The authors averaged sequences with at least three values out of six and counted those with two or fewer as poor binders. As a blank, each scFv also met three strains without target: over all heavy chain designs, 1% of these pairings were detected, typically at 2.08 and seldom below 0.84.

With GFNLNEYGIS / VIYADGNRNAYANSFK / GLHNNFFII [En_Gibbs] the result was nd, nd, nd, nd, nd, nd.
With GFDLNEYGIS / VIYADGQRSYYADSVK / GNVAGTFDV [En_Gen] the result was -0.66, -0.96, -0.83, -0.95, -0.96, -0.67.
With GFDLDEYGIS / VIYADGMRTAYADNVK / GEVAGTFDV [En_Gen] the result was 0.36, -0.54, -0.21, -0.50, -0.63, -0.72.
With GFDLNEYGIS / VIYADGMRTAYSDSVK / GTNAGTFDI [En_Gen] the result was 0.35, -1.02, -0.18, -0.16, -0.82, -0.65.
With GFDLNEYGIS / VIYADGKRTSYIDSVK / GNVAGTFDV [En_Gen] the result was -0.09, -0.39, -0.12, -0.23, -0.54, 0.04.
With GADLNEYGIS / VIYADGDRKAYQDDVK / GTVGGDFDE [En_Gibbs] the result was nd, nd, nd, nd, nd, nd.
With GFDLEDYGIS / VIYADGSRTAYADSVK / GNVAGTFDV [En_Gen] the result was -1.28, nd, -1.32, nd, -2.07, 0.62.
With GFDLNEYGIS / VIYADGVRTFYTDNVK / GQNAGTFDV [En_HC] the result was -0.49, -0.43, -0.57, -0.69, -0.68, -0.49.
With GFDLNEYGIS / VIYADGMRTFYADSVK / GSNAGTFDI [En_Gen] the result was -0.34, -0.55, -0.68, -0.94, -0.81, -0.26.
With GFDLNEYGIS / VIYADGQRTFYADSVK / GTNAGTFDQ [En_HC] the result was -0.71, -0.62, -0.32, -0.53, -0.21, -0.66.
With GFDINEYGIS / VIYADGKRMAYAWKVK / GLMAGTVIV [En_Gibbs] the result was nd, nd, nd, nd, nd, nd.
With GFDINEYGIS / VIYADGRRTYYADSVK / GNQGGTFDL [En_HC] the result was 0.67, -0.62, nd, -0.82, 1.35, 1.27.
With GFDLNEYGIS / VIYADGMRTYYADSVK / GENAGTFDM [En_Gen] the result was -0.44, -0.46, -0.01, -0.64, -0.03, -0.12.
With GFDLNEYGIS / VIYADGRRTQYIDSVK / GNEAGTFDE [En_HC] the result was -0.14, 0.24, -0.06, 0.45, 0.50, 0.55.
With GFDLDEYGIS / VIYADGRRTFYADSVK / GTNAGTFLM [En_HC] the result was 0.76, 0.55, 0.52, 0.82, 0.58, 1.11.
With GFDIDEYGIS / VIYADGMRTFYTDSVK / GETAGTFDA [En_HC] the result was 0.13, -0.03, -0.52, 0.07, 0.36, -0.24.
With GFDLNEYGIS / VIYADGRRTAYVDSVK / GQVAGIFNV [En_HC] the result was 0.01, 0.32, 0.64, 0.19, 0.02, 0.53.
With GFNLDEFGIS / VIYADGNRTFYLDSFK / GENVGAVDT [En_Gibbs] the result was nd, nd, nd, nd, nd, 2.36.
With GFDLNEYGIS / VIYADGQRTAYADSVK / GNVAGTFDL [En_Gen] the result was -0.59, -1.08, -0.25, -0.83, -1.27, -1.04.
With GFDLNEYGIS / VIYADGRRTFYSDSVK / GKVAGTFDK [En_HC] the result was -0.31, -0.33, -0.18, -0.19, -0.12, -0.39.
With GFDLNEYGIS / VIYADGRRTQYIDSVK / GEQAGTFDL [En_HC] the result was 1.27, 0.82, 1.45, 0.34, 0.55, 1.18.
With GFDLDEYGIS / VIYADGMRTYYADSVK / GEVAGTFDL [En_Gen] the result was -0.11, -0.42, -0.32, -0.17, -0.30, -0.06.
With GFDLNEYGIS / VIYADGRRTAYSDSVK / GANAGTFDV [En_Gen] the result was -0.77, -1.07, -0.65, -1.16, -1.13, -0.83.
With GFNLDEYGIS / VIYADGMRTAYSDSVK / GEVAGTFDV [En_Gen] the result was -0.41, -0.49, -0.81, -0.77, -0.36, -0.30.
With GFDLNEYGIS / VIYADGRRTQYIDSVK / GEIAGTFDF [En_HC] the result was 0.01, -0.38, -0.64, 0.18, -0.70, -0.36.
With GFDLNEYGIS / VIYADGMRTQYADSVK / GNVAGTFDT [En_Gen] the result was 0.96, -0.11, 0.14, 0.29, -0.48, 0.06.
With GFDLNEYGIS / VIYADGQRTYYADSVK / GNNAGTFDV [En_Gen] the result was -0.08, -0.45, -0.44, -0.45, -0.34, -0.32.
With GFDLDEYGIS / VIYADGRRTAYADSVK / GNTAGTFDQ [En_Gen] the result was nd, nd, nd, nd, 0.41, nd.
With GDGLLEYGIS / VIYADGMREAYAENVK / GQTGGTFVL [En_Gibbs] the result was 2.22, nd, nd, nd, nd, nd.
With GFNLNEYGIS / VIYADGKRTFYADSVK / GQVAGTFDV [En_HC] the result was -0.16, -0.16, -0.38, -0.66, -0.45, -0.20.
With GFNLDEYGIS / VIYADGRRTFYQDSVK / GNVAGTFDV [En_HC] the result was -0.90, -0.66, -0.57, -0.87, -1.03, -0.77.
With GFDLDEYGIS / VIYADGKRTAYADDVK / GENAGTFDT [En_Gen] the result was 0.76, 0.96, 1.79, 0.16, 0.44, 0.65.
With GFDLESYGIS / VIYADGQRTAYADSVK / GNVAGTFDS [En_HC] the result was 0.53, 0.31, 0.48, -0.33, 0.55, 0.57.
With GFDLNEYGIS / VIYADGMRKAYADSVK / GSNAGTFDV [En_Gen] the result was -0.01, -0.72, -0.25, -0.24, -0.48, 0.02.
With GFDIEEYGIS / VIYADGIRANYDQKVK / GTIAGTFVD [En_Gibbs] the result was 2.13, 0.81, 1.66, 1.07, 2.43, 1.44.
With GFQLDEYGIS / VIYADGKRTAYAQNFK / GNGLVLQEG [En_Gibbs] the result was nd, nd, nd, nd, nd, nd.
With GFGLNEYGIS / VIFADGQRKYYADNVK / GHFGEDGVV [En_Gibbs] the result was nd, nd, nd, nd, nd, nd.
With GFDLNEYGIS / VIYADGMRTQYIDSVK / GNEAGTFDS [En_HC] the result was 0.46, 0.74, 0.37, 0.24, 0.49, 1.22.
With GFDLNEYGIS / VIYADGVRTAYADDVK / GTNAGTFDL [En_Gen] the result was -0.02, 0.25, -0.26, -0.46, -0.05, -0.06.
With GFNLNEYGIS / VIYADGKRTFYSDSVK / GEAAGTFDV [En_HC] the result was -0.26, -0.60, -0.32, -0.68, -0.63, -0.47.
With GFNLNEYGIS / VIYADGMRTFYTDSVK / GETAGTFIV [En_HC] the result was nd, 2.77, 2.97, nd, 3.92, 2.58.

The measurements come from Li et al. 2023 (doi:10.1038/s41467-023-39022-2) through the FLAb antibody collection.